Molecular target: rhuman cathepsin K (Homo sapiens, UniProt P43235)
Test: Assay for identification of Cathepsin K inhibitors (QFRET, cleavage of Z-Phe-Arg-AMC)
Settings: 0.5 nM rhuman cathepsin K, Z-Phe-Arg-AMC substrate, 30 min pre-incubation, 1 h incubation at room temperature; mean of two separate occasions

Protein sequences, listed by entry. Tags and fused reporters are not part of them. Residues count along the entry.
UniProt P43235, 115-329 limits assumed: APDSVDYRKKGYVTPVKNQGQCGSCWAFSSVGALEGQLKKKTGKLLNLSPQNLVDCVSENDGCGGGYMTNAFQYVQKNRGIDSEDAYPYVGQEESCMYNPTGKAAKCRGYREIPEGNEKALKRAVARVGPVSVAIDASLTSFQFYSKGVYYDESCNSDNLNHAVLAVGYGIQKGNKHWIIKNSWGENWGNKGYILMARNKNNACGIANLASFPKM

CatK FRET Mean pIC50	Compound
6.903	CS(=O)(=O)c1ccc2c3c([nH]c2c1)CCN(C(=O)[C@@H]1CCCC[C@H]1C(=O)NC1(C#N)CC1)C3
7.141	CS(=O)(=O)c1cccc2[nH]c3c(c12)CN(C(=O)[C@@H]1CCCC[C@H]1C(=O)NC1(C#N)CC1)CC3

From patent US8008279B2, “Compound—827” (AstraZeneca AB, priority 2007, dated 2011)
